Measurements from PubChem BioAssay AID504847 (National Center for Advancing Translational Sciences (NCATS), 2011).
“And” between values parts separate entries of the source, which are not always exact repeats. Equal values may be shown once. The list shows a part of the results, in another mix than the full data. Inconclusive results are not listed. The source made the active and inactive calls. Calls follow the shape of the dose curve; as a rule, active = well fitted inhibition curve with a large enough effect; inconclusive = small, poorly fitted or top-dose-only effect, or another doubt; inactive = no such curve, though single readings can be large or run the other way.

Protein sequences, listed by entry. Tags and fused reporters are not part of them.
UniProt P11473, whole entry: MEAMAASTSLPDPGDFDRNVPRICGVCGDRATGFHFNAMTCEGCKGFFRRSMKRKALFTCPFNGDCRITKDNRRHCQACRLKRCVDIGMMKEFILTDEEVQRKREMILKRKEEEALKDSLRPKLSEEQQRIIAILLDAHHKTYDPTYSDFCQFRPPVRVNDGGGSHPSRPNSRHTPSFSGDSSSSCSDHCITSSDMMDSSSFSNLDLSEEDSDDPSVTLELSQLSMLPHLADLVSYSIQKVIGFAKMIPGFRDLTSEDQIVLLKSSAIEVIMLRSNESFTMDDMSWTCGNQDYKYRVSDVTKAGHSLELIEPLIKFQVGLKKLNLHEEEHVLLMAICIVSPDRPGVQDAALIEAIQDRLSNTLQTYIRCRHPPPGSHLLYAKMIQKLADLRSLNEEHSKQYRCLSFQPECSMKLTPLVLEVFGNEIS

These compounds were tested against Vitamin D3 receptor (Homo sapiens) (UniProt P11473) (assay: Inhibitors of the vitamin D receptor (VDR): qHTS). Conditions: VDR-SRC2-3 peptide fluorescence polarization, 2 h; max response, negative = inhibition: active compounds read low.
% is scaled to controls: 0 for no effect and ±100 for the full control effect.

Row | SMILES | max response, negative = inhibition
1 | CCOP1(=S)c2c(C)nn(CCC#N)c2N=C(c2ccc(F)cc2)N1C (stereo not drawn) | inactive: -5.25%
2 | CN(C(=O)Cc1ccccc1)[C@@H]1CC[C@]2(CCCO2)C[C@H]1N1CCCC1 | inactive: 5.59% and inactive: -6.61%
3 | N#CCCN(C(=O)COC(=O)C(O)(c1ccccc1)c1ccccc1)c1ccc(F)cc1 | inactive: -1.32%
4 | O=[N+]([O-])OCC(CO[N+](=O)[O-])(CO[N+](=O)[O-])CO[N+](=O)[O-] | inactive: -1.79%
5 | NC(=O)Nc1ccc([As](=O)(O)O)cc1 | inactive: 2.21% and inactive: -7.28% and inactive: -17.3%
6 | CCOC(=O)c1ccc(NP(C)(=O)Oc2ccc(F)cc2)cc1 (stereo not drawn) | inactive: -8.27%
7 | O=P1(N(CCCl)CCCl)OCCC2CCCCN21 (stereo not drawn) | inactive: -9.12%
8 | COc1ccc(OP(C)(=O)Nc2ccc(SC(F)(F)F)cc2)cc1 (stereo not drawn) | inactive: -3.82%
9 | O=C(NC1CCS(=O)(=O)C1)NP(=S)(Oc1ccccc1)Oc1ccccc1 (stereo not drawn) | inactive: 16.7%
10 | CCNC(=S)/N=C(\N)N[N+](=O)[O-] | inactive: -16.9%
11 | Cc1ccc(NP(=O)(Oc2cccc(C)c2)Oc2cccc(C)c2)nc1 | inactive: 10.1%
12 | c1ccc(-c2nn[nH]n2)c(-c2nn[nH]n2)c1 | inactive: 7.21%
13 | CP(=O)(Nc1ccccc1)Oc1ccc(F)cc1 (stereo not drawn) | inactive: 3.07%
14 | CCCCCOc1ccc(NP(C)(=O)Oc2ccc(Cl)cc2Cl)cc1 (stereo not drawn) | inactive: 37.2%
15 | O=c1c2cc([N+](=O)[O-])ccc2[nH]c2c([N+](=O)[O-])cc([N+](=O)[O-])cc12 | inactive: 17%
16 | CN(C)C(=O)Oc1noc2ccccc12 | inactive: 5.33%
17 | CC(NC(=O)COC(=O)C(O)(c1ccccc1)c1ccccc1)c1ccccc1 (stereo not drawn) | inactive: -5.17%
18 | Cc1ccccc1OP(=O)(Nc1ccccn1)Oc1ccccc1C | inactive: 5.24%
19 | CC(=O)NC(SC(=S)N(CC(C)C)CC(C)C)C(Cl)(Cl)Cl (stereo not drawn) | inactive: -13.8%
20 | Cc1ccc(OP(=O)(Nc2ccccn2)Oc2ccc(C)cc2)cc1 | inactive: 8.72%
21 | COC(=O)c1cc2c(s1)N=C(c1ccccc1)N(C)P2(=O)N1CCOCC1 (stereo not drawn) | inactive: 10.7%
22 | Cc1c([N+](=O)[O-])cc([N+](=O)[O-])c(Br)c1[N+](=O)[O-] | inactive: -22.3%
23 | CCC(=O)N1C2C3N(C(=O)CC)C1C1N(C(=O)CC)C(C(N1C(=O)CC)N3C(=O)CC)N2C(=O)CC | inactive: 1.39%
24 | CCN(CC)CCCOC(=O)C(O)(c1ccccc1)C1CCCCC1 (stereo not drawn) | inactive: 7.7%

Row | SMILES | max response, negative = inhibition
25 | O=C(OC1CN2CCC1CC2)c1ccccc1 (stereo not drawn) | inactive: 1.2% and inactive: -3.63%
26 | CP(=O)(Nc1ccccc1F)Oc1ccccc1 (stereo not drawn) | inactive: 2.03%
27 | CCc1cc(O)c([N+](=O)[O-])c(C)c1[N+](=O)[O-] | inactive: -10.5%
28 | CC(C)c1ccc(OP(C)(=O)Nc2ccc(SC(F)(F)F)cc2)cc1 (stereo not drawn) | inactive: -7.96%
29 | CC(C)(C)C(=O)NC(Sc1ccccc1)C(Cl)(Cl)Cl (stereo not drawn) | inactive: -3.17%
30 | CCOc1ccc(C2=NCC(CBr)S2)cc1 (stereo not drawn) | inactive: 1.94%
31 | O=P1(Nc2nc3ccc(Cl)cc3s2)COc2ccccc2O1 (stereo not drawn) | inactive: 8.76%
32 | CC(=O)Nc1ccc(Oc2c([N+](=O)[O-])cc([N+](=O)[O-])cc2[N+](=O)[O-])cc1 | inactive: -27%
33 | CC(=O)Nc1ccc([As](=O)(O)O)c(O)c1 | inactive: 4.73%
34 | COC(=O)C1(C)COP(=O)(NCc2ccccc2)OC1 (stereo not drawn) | inactive: -7.22%
35 | CC(=O)c1ccc(N2CC2c2ccncc2)cc1 (stereo not drawn) | inactive: 6.34%
36 | N#C/C(=C\c1ccc(N(CCBr)CCBr)cc1)C(N)=O | inactive: -16.3%
37 | C[C@H]1OP(=O)(Oc2ccccc2)C[C@@H]2O[C@@H]21 (stereo partly drawn) | inactive: 8.49%
38 | C[C@@H]1C=CCP(=O)(Oc2ccccc2)O1 (stereo partly drawn) | inactive: -8.53%
39 | O=C(OCCN1CCN(CCOCc2ccccc2)CC1)C(O)(c1ccccc1)c1ccccc1 | inactive: -0.362%
40 | Cc1ccccc1CN(C)C(=O)COC(=O)C(O)(c1ccccc1)c1ccccc1 | inactive: -2.33%
41 | CCOP(C)(=S)SCC(=O)NC(C)(CC)C(=O)O (stereo not drawn) | inactive: 16.5%
42 | CCC(C)(OOC(C)(C)C)OOC(C)(C)C | inactive: 4.16%
43 | c1nnnn1CCn1cnnn1 | inactive: 5.52%
44 | CP(=O)(Nc1ccc(SC(F)(F)F)cc1)Oc1ccc(F)cc1 (stereo not drawn) | inactive: -25.2%
45 | O=P(Nc1nccs1)(c1ccccc1)c1ccccc1 | inactive: -15.1%
46 | CC(C)C(=O)NC(Sc1ccccc1)C(Cl)(Cl)Cl (stereo not drawn) | inactive: -21.1%
47 | Cc1ccccc1NP(C)(=O)Nc1ccccc1C | inactive: 10.8%
48 | CCN(CCCl)Cc1ccccc1C | inactive: -1.63%
